Experimental findings from ChEMBL document CHEMBL1147765, “Discovery of N-(2-hydroxy-2-aryl-cyclohexyl) substituted spiropiperidines as GlyT1 antagonists with improved pharmacological profile” (Bioorg Med Chem Lett, 2006) are described below.

Bounds are passed on as bounds.

One experiment addresses Nociceptin receptor (Homo sapiens, UniProt P41146). Kind of experiment: Displacement of [3H]NOP from human NOP receptor expressed in HEK293 cells.
Experiment [1] has as its target T1, Mu-type opioid receptor (Homo sapiens, UniProt P35372). Kind of experiment: Displacement of [3H]naloxone from human mu opioid receptor expressed in BHK cells.
In experiment [2] the target is T1, Mu-type opioid receptor. Put plainly: Inhibitory activity at human mu opioid receptor in BHK cells by GTPgammaS binding assay.

As to `O=C1NCN(c2ccccc2)C12CCN([C@@H]1CCOC[C@@]1(O)c1ccccc1)CC2` (racemic), the IC50 at Nociceptin receptor was over 10 µM; on Mu-type opioid receptor [1], 2.5 µM.

For `O=C1NCN(c2ccccc2)C12CCN([C@@H]1CCCC[C@@]1(O)c1ccccc1)CC2` (racemic), the figures for the IC50 at Mu-type opioid receptor [2] and at Nociceptin receptor were 2.7 µM and 15 µM, respectively.

As to `O=C1NCN(c2ccccc2)C12CCN([C@@H]1CCCC[C@@]1(O)c1ccc(Cl)c(Cl)c1)CC2` (racemic), the results for the IC50 on Nociceptin receptor and on Mu-type opioid receptor [1] were 10 µM and 3.7 µM, respectively.

On to `Cc1ccc([C@]2(O)CCCC[C@H]2N2CCC3(CC2)C(=O)NCN3c2ccccc2)cc1` (racemic), for which the IC50 at Nociceptin receptor is over 10 µM; on Mu-type opioid receptor [1], 3 µM.

Turning to `O=C1NCN(c2ccccc2)C12CCN([C@H]1CCCC[C@@]1(O)c1ccccc1)CC2` (racemic), the IC50 is 1.6 µM at Mu-type opioid receptor [2] and 0.13 µM on Nociceptin receptor.

Regarding `COc1ccc(N2CNC(=O)C23CCN([C@@H]2CCCC[C@@]2(O)c2ccc(Cl)cc2)CC3)cc1` (racemic), the IC50 is over 10 µM at Nociceptin receptor and 4.4 µM on Mu-type opioid receptor [1].

In the case of `O=C1NCN(c2ccccc2)C12CCN([C@@H]1CCCC[C@@]1(O)c1cccnc1)CC2` (racemic), the IC50 at Nociceptin receptor was determined as 13.4 µM; on Mu-type opioid receptor [1], 1.8 µM.

As for `O=C1NCN(c2ccccc2)C12CCN([C@@H]1CCCC[C@@]1(O)c1cccc(Cl)c1)CC2` (racemic), the IC50 turned out to be 3.85 µM on Nociceptin receptor and 1.09 µM at Mu-type opioid receptor [1].

For the molecule `O=C1NCN(c2ccc(Cl)cc2)C12CCN([C@@H]1CCCC[C@@]1(O)c1ccc(F)cc1)CC2` (racemic), the IC50 on Nociceptin receptor was over 10 µM; at Mu-type opioid receptor [1], 2.2 µM.

With `O=C1NCN(c2ccccc2)C12CCN([C@@H]1COCC[C@@]1(O)c1ccccc1)CC2` (racemic), the concentration for half-maximal inhibition (IC50) is over 10 µM on Nociceptin receptor and 5.3 µM at Mu-type opioid receptor [1].

Turning to `O=C1NCN(c2ccccc2)C12CCN([C@@H]1CCCC[C@@]1(O)c1ccccn1)CC2` (racemic), the IC50 was determined as 15 µM on Nociceptin receptor and 1.42 µM on Mu-type opioid receptor [1].

Regarding `COc1ccc([C@]2(O)CCCC[C@H]2N2CCC3(CC2)C(=O)NCN3c2ccccc2)cc1` (racemic), the values for the IC50 at Nociceptin receptor and on Mu-type opioid receptor [1] were 7 µM and 2.5 µM, respectively.

Regarding `O=C1NCN(c2ccc(F)cc2)C12CCN([C@@H]1CCCC[C@@]1(O)c1ccc(Cl)cc1)CC2` (racemic), the IC50 is 10.4 µM on Nociceptin receptor and 2.4 µM at Mu-type opioid receptor [1].

Turning to `O=C1NCN(c2ccccc2)C12CCN([C@@H]1CCCC[C@@]1(O)c1ccncc1)CC2` (racemic), the IC50 at Nociceptin receptor is over 10 µM; on Mu-type opioid receptor [1], 1 µM.

Regarding `O=C1NCN(c2ccccc2)C12CCN([C@@H]1CCCC[C@@]1(O)c1ccc(Cl)cc1)CC2` (racemic), the IC50 at Nociceptin receptor came to 1 µM; on Mu-type opioid receptor [1], 3.6 µM.

With `COc1cccc([C@]2(O)CCCC[C@H]2N2CCC3(CC2)C(=O)NCN3c2ccccc2)c1` (racemic), the IC50 on Nociceptin receptor is 5.8 µM; on Mu-type opioid receptor [1] it was 2.17 µM.

Regarding `Cc1ccccc1[C@]1(O)CCCC[C@H]1N1CCC2(CC1)C(=O)NCN2c1ccccc1` (racemic), the figures for the half-maximal inhibitory concentration (IC50) on Nociceptin receptor and at Mu-type opioid receptor [1] were 1 µM and 0.26 µM, respectively.

In the case of `O=C1NCN(c2ccc(F)cc2)C12CCN([C@@H]1CCCC[C@@]1(O)c1ccc(F)cc1)CC2` (racemic), the IC50 on Nociceptin receptor came to 10 µM; on Mu-type opioid receptor [1], 4 µM.

Turning to `O=C1NCN(c2ccccc2)C12CCN([C@@H]1CCCC[C@@]1(O)c1ccc(F)cc1)CC2` (relative stereo), the IC50 on Nociceptin receptor was 1 µM; on Mu-type opioid receptor [1] it was 4 µM.
